Literature values in US10472401B2, “Peptides and combination of peptides for use in immunotherapy against ovarian cancer and other cancers” (immatics biotechnologies GmbH, priority 2015, dated 2019).

Tested on: ovarian cancer
Settings: clinical studies; cited from earlier work

Substance: trastuzumab
- clinical results in ovarian cancer patients: only conferred limited clinical benefit to ovarian cancer patients
